We go through two compounds from patent US20140045856A1, “4-Methyl-2,3,5,9,9b-pentaaza-cyclopenta[a]naphthalenes” (BOEHRINGER INGELHEIM INTERNATIONAL GMBH, priority 2012, published 2014).

Chains of the proteins cited; added tags and fusions are not shown.
UniProt O00408, whole entry, species assumed: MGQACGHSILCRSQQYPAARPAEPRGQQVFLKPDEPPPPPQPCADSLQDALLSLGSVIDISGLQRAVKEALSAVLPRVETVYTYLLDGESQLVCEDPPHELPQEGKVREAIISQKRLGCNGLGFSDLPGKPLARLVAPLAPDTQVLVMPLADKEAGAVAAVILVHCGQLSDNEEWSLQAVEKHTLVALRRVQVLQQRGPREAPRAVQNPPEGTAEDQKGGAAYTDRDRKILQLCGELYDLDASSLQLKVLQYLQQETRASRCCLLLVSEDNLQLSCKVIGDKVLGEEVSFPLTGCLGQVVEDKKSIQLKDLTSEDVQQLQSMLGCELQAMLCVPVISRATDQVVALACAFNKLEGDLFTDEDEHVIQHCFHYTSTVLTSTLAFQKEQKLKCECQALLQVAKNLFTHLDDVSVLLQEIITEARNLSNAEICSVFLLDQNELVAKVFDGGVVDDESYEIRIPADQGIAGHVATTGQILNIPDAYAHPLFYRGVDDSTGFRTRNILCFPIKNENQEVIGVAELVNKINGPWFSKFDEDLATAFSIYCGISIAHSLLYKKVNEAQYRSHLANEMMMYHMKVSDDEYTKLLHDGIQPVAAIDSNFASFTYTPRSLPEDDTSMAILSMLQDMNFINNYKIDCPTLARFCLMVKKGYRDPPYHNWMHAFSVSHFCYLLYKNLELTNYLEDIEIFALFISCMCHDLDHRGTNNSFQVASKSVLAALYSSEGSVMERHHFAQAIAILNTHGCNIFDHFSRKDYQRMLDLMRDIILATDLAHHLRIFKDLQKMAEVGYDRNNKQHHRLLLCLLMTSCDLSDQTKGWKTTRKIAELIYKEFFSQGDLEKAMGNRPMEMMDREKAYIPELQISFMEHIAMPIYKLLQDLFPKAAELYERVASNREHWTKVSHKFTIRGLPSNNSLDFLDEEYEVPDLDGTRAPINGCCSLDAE

For this experiment, the target named is PDE2A (Homo sapiens, UniProt O00408). Kind of experiment: PDE 2A assay with fluorescent substrate (IMAP, fluorescence polarization). Format: biochemical. The settings on record: read-out: PDE2 IC50. For orientation: Polarisation of emitted light reports the rotation of a fluorescent probe.

`Cc1nc2ccc(C3CC3)nc2n2c(-c3cc(OC4COCC4O)ccc3Cl)nnc12` (single isomer, unassigned) [Example 58c]: the half-maximal inhibitory concentration (IC50) is 37 nM.

As to `Cc1nc2ccc(C3CC3)nc2n2c(-c3cc(OC4COCC4O)ccc3Cl)nnc12` (single isomer, unassigned) [Example 58b], the IC50 worked out at 45 nM.

A word on the IC50: it is the concentration that gives 50% inhibition.
